Reference: PMC8927147, “Global profiling of regulatory elements in the histone benzoylation pathway” (Nature Communications, 2022)
Changes are numbered by the printed parent chain. Names and notes keep the numbering of the source.

T1: H3K9bz peptide
T1 chain: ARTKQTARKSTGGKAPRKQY

B1: Hst2, P53686 D68A; D70A (protein)
chain: MSVSTASTEMSVRKIAAHMKSNPNAKVIFMVGAGISTSCGIPDFRSPGTGLYHNLARLKLPYPEAVFAVAFFQSDPLPFYTLAKELYPGNFRPSKFHYLLKLFQDKDVLKRVYTQNIDTLERQAGVKDDLIIEAHGSFAHCHCIGCGKVYPPQVFKSKLAEHPIKDFVKCDVCGELVKPAIVFFGEDLPDSFSETWLNDSEWLREKITTSGKHPQQPLVIVVGTSLAVYPFASLPEEIPRKVKRVLCNLETVGDFKANKRPTDLIVHQYSDEFAEQLVEELGWQEDFEKILTAQGGMGDNSKEQLLEIVHDLENLSLDQSEHESADKKDKKLQRLNGHDSDEDGASNSSSSQKAAKE
B2: Hst2, P53686 H135A (protein)
chain: B1 chain with A68D, A70D, H135A
B3: Hst2, P53686 I117F (protein)
chain: B1 chain with A68D, A70D, I117F
B4: Hst2, P53686 F184A (protein)
chain: B1 chain with A68D, A70D, F184A
B5: Hst2, P53686 I117V (protein)
chain: B1 chain with A68D, A70D, I117V

Molecular target: T1, H3K9bz peptide
Test: ITC
Conditions: chain shown with the change

Going from B1 to B2, the Kd rises from 17.9 µM to 81.3 µM (4.5-fold).

Compared with B3, B4 is 13-fold higher in Kd: 4.18 µM for the first, 55.9 µM for the second. The first binds more tightly here.

Work on B5 yielded a Kd of 0.51 µM.
